Test results: ChEMBL document CHEMBL1133841 (Bioorg Med Chem Lett, 2001)
pIC50: −log10 of the molar value.

Target: T1, Serine-threonine protein phosphatase 2A regulatory subunit (Gallus gallus, UniProt Q8AWE3)
T1 sequence (Q8AWE3 whole entry): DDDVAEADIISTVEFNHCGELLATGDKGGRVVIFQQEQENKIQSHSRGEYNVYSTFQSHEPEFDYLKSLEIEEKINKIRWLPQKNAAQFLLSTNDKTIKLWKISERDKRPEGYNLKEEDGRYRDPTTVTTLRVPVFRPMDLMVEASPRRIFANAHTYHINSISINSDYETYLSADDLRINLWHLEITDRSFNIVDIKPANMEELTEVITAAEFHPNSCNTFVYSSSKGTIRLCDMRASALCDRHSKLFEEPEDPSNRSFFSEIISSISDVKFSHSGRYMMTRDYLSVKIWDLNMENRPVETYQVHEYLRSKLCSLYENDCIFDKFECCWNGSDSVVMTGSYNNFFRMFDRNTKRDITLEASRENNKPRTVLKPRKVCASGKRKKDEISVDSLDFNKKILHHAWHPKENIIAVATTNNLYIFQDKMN
Experiment: Inhibitory concentration against protein phosphatase 2A (PP2A) was determined

SMILES | pIC50
CC[C@H](C)[C@H](C(=O)O)N1C(=O)[C@@H]2[C@H](C1=O)[C@H]1CC[C@@H]2O1 | < 3.00
CC[C@H](C)[C@@H](C(=O)O)N1C(=O)[C@@H]2[C@H](C1=O)[C@H]1CC[C@@H]2O1 | < 3.00
